This note sets out measurements from PMC5061470, “Promiscuous targeting of bromodomains by bromosporine identifies BET proteins as master regulators of primary transcription response in leukemia” (Science Advances, 2016).

Amino acid sequences for entries named in this document (tags omitted). Residues count along the entry.
UniProt P25440, 344-453 limits assumed: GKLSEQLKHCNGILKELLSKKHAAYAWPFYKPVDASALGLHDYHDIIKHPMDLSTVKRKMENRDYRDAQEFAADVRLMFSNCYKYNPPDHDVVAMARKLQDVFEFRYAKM

This assay deals with BRD2(2) (Homo sapiens, UniProt P25440). The conditions noted are these: pH 7.5.

In turn, `CCOC(=O)Nc1cc(-c2ccc(C)c(NS(C)(=O)=O)c2)nn2c(C)nnc12` [BSP, ethyl (3-methyl-6-(4-methyl-3-(methylsulfonamido)phenyl)-[1,2,4]triazolo[4,3-b]pyridazin-8-yl)carbamate] had a dissociation constant (Kd) of 50.3 ± 5 nM.

Broadly, the Kd is the equilibrium constant for the complex coming apart.
